In the assay the target is kB2R (Homo sapiens, UniProt P30411). Briefly: [3H]BK binding and endocytosis assay, cell surface kB2R, HEK293 cells. Particulars: HEK cells stably expressing kB1R and kB2R; 1 nM [3H]BK 90 min on ice; n=3.

Protein sequences, listed by entry. Tags and fused reporters are not part of them.
UniProt P30411, whole entry: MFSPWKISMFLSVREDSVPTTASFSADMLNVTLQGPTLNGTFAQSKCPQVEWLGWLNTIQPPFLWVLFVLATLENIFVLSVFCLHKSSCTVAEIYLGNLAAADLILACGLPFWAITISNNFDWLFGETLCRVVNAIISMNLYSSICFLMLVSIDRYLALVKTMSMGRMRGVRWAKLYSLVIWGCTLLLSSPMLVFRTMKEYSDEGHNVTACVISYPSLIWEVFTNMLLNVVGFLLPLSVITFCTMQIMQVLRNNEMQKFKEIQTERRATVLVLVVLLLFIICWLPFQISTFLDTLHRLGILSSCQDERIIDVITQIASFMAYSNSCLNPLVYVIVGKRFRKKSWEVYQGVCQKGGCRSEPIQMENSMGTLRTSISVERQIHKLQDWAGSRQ

We go through one substance from article PMC4253050 (Cellular signalling, 2014).

Regarding HOE140, the “inhibition of [3H]-BK binding by kB2R antagonist” value is listed as “almost completely inhibited”.
